The subject of this test is activation of CD4 T cells.

As to `CC(C)Cn1cnc2c(N)nc3ccccc3c21` [imiquimod, 1-(2-methylpropyl)-1H-imidazo[4,5-c]quinolin-4-amine], the “increase in activation of CD4 T cells (IL-2 ELISPOT), pVAC1.OVA + imiquimod compared with pVAC1.OVA alone” value (imiquimod 30 mg/kg, lymph node cells 6 days after immunisation) is on record as 70%. Also, the “number of activated CD4 T cells in vivo (FIG. 3)” value (in words) was “increases”.

The values are drawn from patent publication US20110002953A1, “USE OF IMMIDAZOQUINOLINAMINES AS ADJUVANTS IN DNA VACCINATION” (priority 2000, published 2011).
